## Reported vapor pressure values for industrial, environmental and drug-like chemicals

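The numbers are reported measurements, compiled and curated for the OPERA QSAR suite. A listed value is a point estimate from one report or more. How each value was measured is not recorded, so precision varies. Where a salt, mixture or single isomer is drawn, the source does not say that exactly this form was tested. Some upstream entries may be estimates or bounds without being marked so.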

Vapor pressures (log10 mmHg) refer to near room temperature, 15 to 30 °C; higher is more volatile.
"–" marks a cell with nothing listed here.

SMILES,name,log VP (log10 mmHg)
NCCN1CCNC1=O,1-(2-Aminoethyl)imidazolidin-2-one,-3.014
O=[N+]([O-])c1ccc(S(=O)(=O)Cl)cc1,"Benzenesulfonyl chloride, 4-nitro-",-3.99
CCCCCCCC(OC)OC,"1,1-Dimethoxyoctane",-1.027
CC(=O)CC(C)(C)c1ccccc1,"2-Pentanone, 4-methyl-4-phenyl-",-1.736
CCc1ccc(B(O)O)cc1,4-Ethylphenylboronic acid,-7.599
CO[Si](CCCNC1CCCCC1)(OC)OC,Geniosil GF 92,-2.799
COc1ccc(CCC(C)=O)cc1,4-(4-Methoxyphenyl)-2-butanone,-1.108
CC(C)C1OCCN1CCOC(=O)NCCCCCCNC(=O)OCCN1CCOC1C(C)C (configuration not stated),–,-5.318
CCCOC(C)OCCc1ccccc1 (configuration not stated),[2-(1-Propoxyethoxy)ethyl]benzene,-2.347
CNC[C@H](O)[C@@H](O)[C@H](O)[C@H](O)CO,"(2R,3R,4R,5S)-6-(Methylamino)hexane-1,2,3,4,5-pentol",-7.673
C/C=C/CC[C@H]1CC[C@H]([C@H]2CC[C@H](CCC)CC2)CC1,–,-6.06
O=C1CCCCCCCCCCCCCCCO1,Oxacycloheptadecan-2-one,-3.539
CCCC(CCC)CCCC1COCCN1CCO.Cl (configuration not stated),Delmopinol hydrochloride,-4.648
CCOC(=O)c1cccnc1,Ethyl nicotinate,-1.443
NC1CCCC1,Cyclopentanamine,1.287
CCC=CCCCCCCCC(=O)OC,"9-Dodecenoic acid, methyl ester",-2.129
CCO[Si](CCC#N)(OCC)OCC,3-(Triethoxysilyl)propionitrile,-1.846
Brc1cnc2ccccc2c1,"Quinoline, 3-bromo-",-2.833
C=CC(C)CCCC(C)(C)OC=O (configuration not stated),"7-Octen-2-ol, 2,6-dimethyl-, 2-formate",-0.436
CCN(CC)c1ccc(C(=O)c2ccc(N(CC)CC)cc2)cc1,"Methanone, bis[4-(diethylamino)phenyl]-",-9.639
Cc1ccc([C@@H]2O[C@H](COC(=O)C(C)(C)C)[C@@H](OC(=O)C(C)(C)C)[C@H](OC(=O)C(C)(C)C)[C@H]2OC(=O)C(C)(C)C)cc1Cc1ccc(-c2ccc(F)cc2)s1,–,-9.907
NCCC(=O)O,beta-Alanine,-7.296
C1=COCCC1,"3,4-Dihydro-2H-pyran",1.824
CC12C=CC(=O)C=C1CCC1C2C(O)CC2(C)C1CC(O)C2(O)C(=O)CO (configuration not stated),"11,16,17,21-Tetrahydroxypregna-1,4-diene-3,20-dione",-11.65
CCCCCCCCCCCC[N+](C)(C)C.[Br-],Dodecyltrimethylammonium bromide,-5.736
Brc1cccc(Oc2cccc(Br)c2)c1,"1,1'-Oxybis(3-bromobenzene)",-3.928
CCCCCCCCCCCC(=O)OCCCCCCCCCC,"Dodecanoic acid, decyl ester",-7.151
CCCCCC[C@@H](O)C/C=C\CCCCCCCC(=O)OC,Methyl ricinoleate,-3.166
CC1=CC2C(C=O)CC1CC2C(C)C (configuration not stated),–,-1.822
C[C@H]1CC[C@@]2(O)C(C)(C)[C@@H]3CC[C@@]2(C)[C@H]1C3,–,-2.979
CN(C)C(=O)NC1CCCCCCC1,Cycluron,-7
CCCCCCC(O)CCCCCCCCCCC(=O)NCCNC(=O)CCCCCCCCCCC(O)CCCCCC (configuration not stated),"N,N'-Ethylenebis(12-hydroxyoctadecanamide)",-7.866
O=C(OCC1CO1)c1ccc(C(=O)OCC2CO2)cc1 (configuration not stated),"Bis[(oxiran-2-yl)methyl] benzene-1,4-dicarboxylate",-6.294
CCCC1CO1 (configuration not stated),"Oxirane, 2-propyl-",1.72
CCCCC(C(=O)OCC)C(=O)OCC,Diethyl butylmalonate,-1.974
CCCCCCCCCCCCCCCCCC(=O)OCCOC(C)=O,Acetylated glycol stearate,-5.018
CC(C)CCC(C)Nc1ccc(N)cc1 (configuration not stated),"1,4-Benzenediamine, N1-(1,4-dimethylpentyl)-",-4.401
CC(C)=CCC/C(C)=C/CC[C@H](C)CC=O,"(3S,6E)-3,7,11-Trimethyl-6,10-dodecadienal",-2.534
C=C(C)C(=O)OCC1COC(C)(C)O1 (configuration not stated),–,-1.401
CC(CC(=O)O)CC(C)(C)C (configuration not stated),"3,5,5-Trimethylhexanoic acid",-2.412
CCCCCC(CCC)COC(=O)CCCCC(=O)OCC(CCC)CCCCC (configuration not stated),–,-7.084
CCCCCC1CCC(=O)CC1,4-Pentylcyclohexanone,-1.824

The 2 lowest values of log VP among the entries above:

SMILES,name,log VP (log10 mmHg)
CC12C=CC(=O)C=C1CCC1C2C(O)CC2(C)C1CC(O)C2(O)C(=O)CO (configuration not stated),"11,16,17,21-Tetrahydroxypregna-1,4-diene-3,20-dione",-11.65
Cc1ccc([C@@H]2O[C@H](COC(=O)C(C)(C)C)[C@@H](OC(=O)C(C)(C)C)[C@H](OC(=O)C(C)(C)C)[C@H]2OC(=O)C(C)(C)C)cc1Cc1ccc(-c2ccc(F)cc2)s1,–,-9.907

Values as listed in the OPERA 2.9 repository of K. Mansouri.